Values quoted from earlier work as cited in patent US5928915A, “CHO cell sialidase by recombinant DNA technology” (Genentech, Inc., priority 1997, dated 1999).

Assays:
[1] = system: lysosomal sialidase (fibroblasts); settings: cited from earlier work
[2] = system: plasma membrane sialidase (adenovirus transformed kidney cells); settings: cited from earlier work

CC(=O)N[C@H]1[C@H]([C@H](O)[C@H](O)CSc2ccc(N=[N+]=[N-])cc2[N+](=O)[O-])OC(C(=O)O)=C[C@@H]1O [9-PANP-Neu5Ac2en, 9-S-(4'-azido-2'-nitro-phenyl)-5-acetamido-2,6 anhydro-9-thio-2,5,9-trideoxy-D-glycero-D-galacto-non-2-enonic acid]
inhibition in words [1]: strongly inhibited | inhibition in words [2]: strongly inhibited
